The values that follow come from ChEMBL document CHEMBL1152259, “Synthesis of new sulfonate and phosphonate derivatives for cation-independent mannose 6-phosphate receptor targeting” (Bioorg Med Chem Lett, 2008).

Molecules are shown by their SMILES.

In this experiment the target is Cation-independent mannose-6-phosphate receptor/IGF2R (Homo sapiens) (UniProt P11717). The experiment in a line: Binding affinity to CI-M6PR relative to mannose 6-phosphate.
On to `CO[C@H]1O[C@H](/C=C/S(=O)(=O)[O-])[C@@H](O)[C@H](O)[C@@H]1O.[Na+]`, for which the Ratio IC50 turned out to be 0.3. In the case of `CO[C@H]1O[C@H](CCS(=O)(=O)[O-])[C@@H](O)[C@H](O)[C@@H]1O.[Na+]` it was 0.15. In the case of `CO[C@H]1O[C@H](/C=C/P(=O)([O-])[O-])[C@@H](O)[C@H](O)[C@@H]1O.[Na+].[Na+]` it was 1.05.
